# Screens (PubChem BioAssay)
# miR-21 reporter = miR-21 reporter, rising signal; Potency, µM (titrated, usually from 38.3 µM), without a hit: at the highest dose reporter change, positive = more light; AID 2288; 340,000 tested, under 10 active; HeLa miR-21 FLuc reporter, luciferase, 48 h; active = well fitted rising curve with a large enough effect; inconclusive = small, poorly fitted or top-dose-only effect; inactive = no such curve, though single readings can be large or run the other way;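 note: % of control where 0% means no effect; miR-21 action dims this reporter so a rising signal means less miR-21 action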
#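 Compounds were titrated across several concentrations (up to approximately 40 uM) and incubated 48 hours with HeLa miR-21-FLuc reporter cells (miR-21 target sequence downstream of FLuc, endogenous miR-21). Readout was firefly luciferase luminescence after lytic detection reagent.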
# DT40 TDP1 CPT = growth inhibition of DT40 Tdp1-/-;hTDP1 cells with camptothecin (screen for TDP1 inhibitors); chicken DT40 Tdp1-/-;hTDP1 cells + 20 nM CPT, ATP luminescence, 48 h; Potency, µM (highest dose often 46.2 µM), for the others: at the highest dose activity change, negative = growth inhibition, most hits filed as inhibitors; hit rate 12% among 420,000; AID 686979; further: potency means the concentration at half of the fitted maximal effect; on the % scale 0 is the no-effect control and ±100 the full control effect; nearly all actives have a fitted effect of over 55% in size
#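 Chicken DT40 Tdp1-/- cells complemented with human TDP1, 400 cells/well, exposed to compounds plus 20 nM camptothecin for at least 48 h at 37 C; viability read as ATP content by CellTiter-Glo luminescence.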
# uPA generation = inhibitors of cell surface uPA generation | cell surface uPA generation assay, qHTS | Potency, µM (top dose mostly 38.3 µM), inactives show at the highest dose activity change, negative = inhibition, usual class: inhibitors | hit rate 0.31% among 330,000 | AID 540303; active means well fitted inhibition curve with a large enough effect; inconclusive means small, poorly fitted or top-dose-only effect; inactive means no such curve, though single readings can be large or run the other way; tested in mouse RAW 264.7 cells; further: potency means the concentration at half of the fitted maximal effect; on the % scale 0 is the no-effect control and ±100 the full control effect; nearly all actives have a fitted effect of over 55% in size
# TDP1 inh = TDP1 (human) enzyme inhibition | Q9NUW8 | recombinant TDP1, AlphaScreen DNA substrate cleavage | Potency, µM (top dose mostly 130 µM), for the others: top-dose activity change, negative = inhibition, actives largely listed as inhibitors | hit rate 0.28% among 350,000 | AID 485290; further: potency means the concentration at half of the fitted maximal effect; on the % scale 0 is the no-effect control and ±100 the full control effect; nearly all actives have a fitted effect of over 40% in size
#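 Compounds were preincubated with Tdp1 (1 nM final) for 15 min at room temperature before substrate (15 nM final) started a 5 min reaction; beads (10 ug/ml final) were then added for 10 min before AlphaScreen detection.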
# TDP1 cell noCPT = qHTS for Inhibitors of human tyrosyl-DNA phosphodiesterase 1 (TDP1): qHTS in cells in absence of CPT; DT40 Tdp1-/- hTDP1 cells, no CPT, ATP luminescence, 48 h; Potency, µM (titrated, usually from 46.2 µM), for inactives: top-dose activity change, negative = growth inhibition, usual class: inhibitors; hit rate 15% among 420,000; AID 686978, 2013; further: potency means the concentration at half of the fitted maximal effect; on the % scale 0 is the no-effect control and ±100 the full control effect; nearly all actives have a fitted effect of over 55% in size
#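 Cells were dispensed at 400 per well, compounds added by pin tool, plates incubated ≥48 hr at 37 °C, then CellTiter-Glo added for 30 min at room temperature before luminescence reading. Line: DT40 Tdp1-/- complemented with hTDP1; camptothecin omitted.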
# * = called active by the depositor; ? = inconclusive; . = no result; [ ] = another dose, or the depositor's remark. A selection: hits, their analogues and other compounds. The true share with any hit is near 16%. Unless noted, the call rests on the fitted dose curve; in most records, active means well fitted curve in the direction sought with a large enough effect; inconclusive means small, poorly fitted or top-dose-only effect, or another doubt; inactive means no such curve, though single readings can be large; an effect the other way counts as inactive or inconclusive.
# Every second line gives: miR-21 reporter	DT40 TDP1 CPT	uPA generation	TDP1 inh	TDP1 cell noCPT
COc1cc([C@@H]2c3cc4c(cc3[C@@H](O)C3COC(=O)C32)OCO4)cc(OC)c1O (stereo partly specified)
→ .	.	.	0.5%	.
COc1cc([C@@H]2c3cc4c(cc3[C@@H](O)[C@H]3COC(=O)[C@H]23)OCO4)cc(OC)c1O
→ .	0.1µM*	.	.	0.112µM*
COc1cc(C2c3cc4c(cc3C(O)[C@H]3COC(=O)C23)OCO4)cc(OC)c1OC (stereo partly specified)
→ .	0.0231µM*	.	4.5%	0.0366µM*
COc1cc(C2c3cc(O)c(OC)cc3CC3C(=O)OCC32)ccc1O (stereo unspecified)
→ .	17.9%	8.1%	.	2.5%
CCCn1c(=O)c2[nH]c(C3CCCC3)nc2n(CCCOC(=O)c2ccc(S(=O)(=O)F)cc2)c1=O
→ .	.	.	12.3%[56.1 µM]	.
CCOc1ccc(OC(=O)c2ccc3c(=O)n4c(nc3c2)CCC4)cc1
→ .	?	-4.9%	.	?
Nc1ccc(S(=O)(=O)NCc2ccccc2)cc1
→ .	-16.7%	.	5.7%	?
COC(=O)C1=C(c2ccc(C(C)=O)cc2)C[C@@H]2CC[C@H]1N2C(=O)N1CCCCC1
→ .	20.6µM*	8.1%	1.0%	16.4µM*
COC(=O)C1=C(c2ccc(C(C)=O)cc2)C[C@@H]2CC[C@H]1N2C(=O)N1CCCC1
→ .	?	-9.7%	0.8%	?
COC(=O)C1=C(c2ccc(OC(F)(F)F)cc2)C[C@@H]2CC[C@H]1N2C(=O)N1CCCCC1
→ .	2.59µM*	-16.7%	-3.2%	2.06µM*
CN(C)c1ccc(/C=C2/C(=O)NC(=O)N(CCc3ccc(F)cc3)C2=O)cc1
→ 0.0%	?	22.1%	-0.6%	?
C=CCN1C(=O)NC(=O)/C(=C/C=C/c2ccccc2)C1=O
→ 0.1%	16.4µM*	-0.3%	-5.3%	23.1µM*
O=C1NC(=O)N(CCc2ccc(F)cc2)C(=O)/C1=C\C=C\c1ccccc1
→ -0.4%	2.31µM*	10.7%	2.5%	3.66µM*
COc1ccc(C(=O)CN2CCOCC2)cc1
→ .	-21.2%	.	.	-4.6%
CC(C)(C)c1o[nH]c(=O)c1C[C@H](N)C(=O)O
→ .	5.5%	.	4.8%	-4.7%
CC(C)(O)C(=O)Nc1ccc([N+](=O)[O-])c(C(F)(F)F)c1
→ .	?	-10.3%	0.6%	14.6µM*
COc1ccccc1OC(=O)Oc1ccccc1OC
→ .	-8.5%	-12.1%	-6.4%	?
COc1cc(/C=C2\C(=O)NC(=O)N(c3ccccc3)C2=O)c([N+](=O)[O-])cc1OC
→ -6.4%	-6.0%	-6.0%	4.8%	-7.4%
CN1C(=O)NC(=O)/C(=C\C=C\c2ccccc2[N+](=O)[O-])C1=O
→ ?	?	-4.7%	3.0%	5.8µM*
Cc1nn(Cc2ccccc2)c(Cl)c1C(=O)NC1CCCc2ccccc21 (stereo unspecified)
→ -9.7%	?	20.3%	-0.6%	20.6µM*

# Individual results from the entries so far.
# `COc1ccc(C(=O)CN2CCOCC2)cc1` – DT40 TDP1 CPT: -21.2%
# `COC(=O)C1=C(c2ccc(OC(F)(F)F)cc2)C[C@@H]2CC[C@H]1N2C(=O)N1CCCCC1` – uPA generation: -16.7%
# `COc1cc(C2c3cc4c(cc3C(O)[C@H]3COC(=O)C23)OCO4)cc(OC)c1OC` (stereo partly specified) – TDP1 cell noCPT: 0.0366µM*

# Reformatted with each value named: two of the compounds above.
> CC(C)(O)C(=O)Nc1ccc([N+](=O)[O-])c(C(F)(F)F)c1
- miR-21 reporter = .
- DT40 TDP1 CPT = ?
- uPA generation = -10.3%
- TDP1 inh = 0.6%
- TDP1 cell noCPT = 14.6µM*
> COc1ccccc1OC(=O)Oc1ccccc1OC
- miR-21 reporter = .
- DT40 TDP1 CPT = -8.5%
- uPA generation = -12.1%
- TDP1 inh = -6.4%
- TDP1 cell noCPT = ?

# (more compounds)
# Every second line gives: miR-21 reporter	DT40 TDP1 CPT	uPA generation	TDP1 inh	TDP1 cell noCPT
C/C(=C\c1ccc(N(C)C)cc1)[N+](=O)[O-]
→ ?	4.11µM*	.	3.9%	4.11µM*
CN(C)c1ccc(/C=C/[N+](=O)[O-])cc1
→ -1.4%	?	-4.0%	1.9%	16.4µM*
Oc1ccc(C(=C(Cl)Cl)c2ccc(O)cc2)cc1
→ 0.9%	.	.	.	.
C=CCN1C(=O)/C(=C/c2cc(C)n(-c3cccnc3)c2C)C(=O)NC1=S
→ 0.5%	?	3.9%	-4.5%	?
Cc1cc(/C=C2/SC(=S)N(c3ccc([N+](=O)[O-])cc3)C2=O)c(C)n1-c1cccnc1
→ 6.9%	1.64µM*	?	10.1%	1.03µM*
O=C=NCCCCN=C=O
→ .	.	.	6.2%	.
CC(C)CON=O
→ .	.	.	4.8%	.
COc1ccc(NP(=O)(Oc2ccc(Cl)cc2)Oc2ccc(Cl)cc2)cc1OC
→ -3.9%	18.4µM*	2.3%	11.0%	25.9µM*
COc1ccc(NP(=O)(Oc2ccccc2OC)Oc2ccccc2OC)cc1
→ 8.3%	?	3.7%	10.3%	16.4µM*
COc1ccc(OC)c(NP(=O)(Oc2ccc(Cl)cc2)Oc2ccc(Cl)cc2)c1
→ -7.0%	3.1%	-1.7%	2.7%	13.2%

# Record cards (already shown). Order of values: miR-21 reporter, DT40 TDP1 CPT, uPA generation, TDP1 inh, TDP1 cell noCPT
# Record of `CC(C)CON=O` : ., ., ., 4.8%, .
# Record of `COc1ccc(OC)c(NP(=O)(Oc2ccc(Cl)cc2)Oc2ccc(Cl)cc2)c1` : -7.0%, 3.1%, -1.7%, 2.7%, 13.2%

# The list goes on:
# Every second line gives: miR-21 reporter	DT40 TDP1 CPT	uPA generation	TDP1 inh	TDP1 cell noCPT
C=CCN1CCC2(C)c3cc(O)ccc3C[C@H]1[C@H]2C
→ .	1.2%	.	8.6%[56.1 µM]	-15.8%
C[C@@]12CCC(OS(=O)(=O)O)C[C@@H]1CCC1C2CC[C@]2(C)C(=O)CCC12 (stereo partly specified)
→ .	-1.9%	.	3.6%	1.9%
Cc1ccc(NC(=O)N2CC2)cc1NC(=O)N1CC1
→ .	?	0.4%	.	?
O=C(Nc1ccc(Cl)cc1)N1CC1
→ .	8.2µM*	-1.9%	.	14.6µM*
CCOC(=O)c1cc(-c2ccccc2)n(CCCC(=O)Nc2ccc(C)c(C)c2)c1C
→ ?	16.4µM*	.	7.6%	3.66µM*
COc1ccc(NC(=O)CCCn2c(=O)oc3ccccc32)cc1Cl
→ -69.7%	-2.6%	-1.6%	1.1%	10.2%
COC(=O)C1=C(c2ccc(S(C)(=O)=O)cc2)C[C@@H]2CC[C@H]1N2C(=O)NCCS(C)=O (stereo partly specified)
→ .	17.2%	-7.3%	.	-7.6%
CCOC(=O)c1ccc(NC(=O)c2cccn(Cc3ccc(C)cc3)c2=O)cc1
→ 19.3%	?	.	2.6%	-26.4%
Cc1ccc(Cn2nc(C(=O)Nc3ccc(Br)cc3)cc2C)cc1
→ -20.7%	?	-7.6%	.	11.6µM*
CCCc1nnc(NC(=O)CCC(=O)N2CCN(Cc3ccc(OC)c(F)c3)CC2)s1
→ 14.7%	?	-21.4%	0.0%	?
CCOc1cc(CNCCc2c[nH]c3ccccc23)cc(Cl)c1OC
→ -0.1%	8.2µM*	2.3%	5.1%	5.8µM*
COc1cccc(CNCCc2c[nH]c3ccccc23)c1OC
→ -1.5%	2.0%	1.7%	10.8%	-15.0%
COc1ccc(CNCCc2c[nH]c3ccccc23)c(OC)c1OC
→ 1.7%	16.4µM*	-4.2%	.	11.6µM*
COc1ccccc1CCNCc1ccc(OC)c(OC)c1OC
→ -6.1%	25.9µM*	4.5%	2.5%	11.6µM*
CCOC(=O)NC(C)(C)Cc1ccc(Cl)cc1
→ .	4.9%	.	.	?
CC1(C(=O)O)C2CCC(O2)C1(C)C(=O)O (stereo unspecified)
→ .	.	.	-14.2%[56.1 µM]	.
Cc1[nH]c2c(Cl)cccc2c(=O)c1CN1CCCCCC1
→ -8.0%	?	-3.8%	.	-15.6%
Cc1oc2ccc(O)c(CN3CCCCCC3)c2c1C(=O)Nc1cccc(Cl)c1C
→ ?	3.66µM*	.	6.1%	5.8µM*
Cc1ccc2c(c1)Cc1c(C(=O)NC3CCCCC3)nn(-c3ccc(Cl)cc3Cl)c1-2
→ .	.	.	9.5%	.
COc1cc2c(c(OC)c1OC)-c1ccc(OC)c(=O)cc1C(NC(C)=O)CC2 (stereo unspecified)
→ 22.2%	0.0184µM*	?	8.2%	0.0092µM*
COC1=C[C@@H]2C3=C([C@@H]2C1=O)[C@@H](NC(C)=O)CCc1cc(OC)c(OC)c(OC)c13
→ .	-4.4%	-1.6%	.	-18.8%
